{"sequences": {"note": "By UniProt entry, the sequences of proteins in these tests, tags left out. Residues count along the entry.", "UniProt P11802, 2-303 limits assumed": "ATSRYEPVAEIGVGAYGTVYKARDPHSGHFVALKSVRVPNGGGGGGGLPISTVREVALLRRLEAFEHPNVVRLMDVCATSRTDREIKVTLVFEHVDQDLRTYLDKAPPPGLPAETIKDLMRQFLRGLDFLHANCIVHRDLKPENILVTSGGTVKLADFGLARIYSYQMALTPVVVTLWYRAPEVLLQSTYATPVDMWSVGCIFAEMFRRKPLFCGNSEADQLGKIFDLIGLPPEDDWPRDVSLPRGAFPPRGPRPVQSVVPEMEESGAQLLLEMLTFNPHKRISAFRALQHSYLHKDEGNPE", "UniProt Q00534, whole entry": "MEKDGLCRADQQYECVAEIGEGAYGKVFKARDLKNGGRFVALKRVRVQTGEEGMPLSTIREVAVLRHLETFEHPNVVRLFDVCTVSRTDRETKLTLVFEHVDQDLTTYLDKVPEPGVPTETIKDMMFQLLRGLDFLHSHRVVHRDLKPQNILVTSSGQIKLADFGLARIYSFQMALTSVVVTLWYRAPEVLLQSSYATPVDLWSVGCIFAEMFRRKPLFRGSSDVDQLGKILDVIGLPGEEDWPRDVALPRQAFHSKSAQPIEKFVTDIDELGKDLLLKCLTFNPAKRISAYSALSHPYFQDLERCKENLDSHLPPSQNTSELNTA", "UniProt P06493, whole entry": "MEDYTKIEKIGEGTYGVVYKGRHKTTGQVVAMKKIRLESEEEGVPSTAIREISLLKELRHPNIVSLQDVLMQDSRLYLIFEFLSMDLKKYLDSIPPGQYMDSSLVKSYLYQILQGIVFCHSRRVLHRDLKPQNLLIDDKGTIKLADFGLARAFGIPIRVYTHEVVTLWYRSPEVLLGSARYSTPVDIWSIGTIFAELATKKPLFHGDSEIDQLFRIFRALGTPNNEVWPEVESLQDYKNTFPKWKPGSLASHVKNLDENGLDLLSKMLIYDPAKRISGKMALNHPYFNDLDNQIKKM", "UniProt P14635, whole entry partner": "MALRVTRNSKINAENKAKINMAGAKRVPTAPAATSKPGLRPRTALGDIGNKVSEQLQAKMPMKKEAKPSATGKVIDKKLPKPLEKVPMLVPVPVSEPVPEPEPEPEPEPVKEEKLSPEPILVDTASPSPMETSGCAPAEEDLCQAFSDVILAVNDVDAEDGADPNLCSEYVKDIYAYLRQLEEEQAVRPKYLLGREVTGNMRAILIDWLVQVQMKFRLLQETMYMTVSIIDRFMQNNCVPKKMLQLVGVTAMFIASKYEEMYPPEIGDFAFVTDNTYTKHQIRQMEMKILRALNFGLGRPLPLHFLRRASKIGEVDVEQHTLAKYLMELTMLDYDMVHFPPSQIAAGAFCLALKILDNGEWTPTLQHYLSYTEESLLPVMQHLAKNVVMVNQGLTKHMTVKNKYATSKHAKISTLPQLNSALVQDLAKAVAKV"}, "source": "patent US11168088B2", "about": "(SHANGHAI HAIYAN PHARMACEUTICAL TECHNOLOGY CO., LTD., priority 2016, dated 2021)", "key": {"CDK4": {"target": "CDK4 (Homo sapiens (Human), UniProt P11802)", "assay": "In vitro kinase test (LANCE Ultra), CDK4", "settings": "read-out: CDK4 IC50"}, "CDK6": {"target": "CDK6 (Homo sapiens (Human), UniProt Q00534)", "assay": "In vitro kinase test (LANCE Ultra), CDK6", "settings": "read-out: CDK6 IC50"}, "CDK1": {"target": "CDK1 (Homo sapiens (Human), UniProt P06493)", "assay": "In vitro kinase test (LANCE Ultra), CDK1", "settings": "read-out: CDK1 IC50"}, "CDK2": {"target": "CDK2 (Homo sapiens (Human), UniProt P24941)", "assay": "In vitro kinase test (LANCE Ultra), CDK2", "settings": "read-out: CDK2 IC50"}}, "data": [{"smiles": "CCn1nc2c(c1C(C)C)-c1nc(Nc3ccc(N4CCNCC4)cn3)ncc1C2", "values": [{"measurement": "IC50", "setting": "CDK4", "value": 15, "unit": "nM"}, {"measurement": "IC50", "setting": "CDK6", "value": 201, "unit": "nM"}, {"measurement": "IC50", "setting": "CDK1", "value": 7470, "unit": "nM"}, {"measurement": "IC50", "setting": "CDK2", "value": 9460, "unit": "nM"}]}, {"smiles": "CC(C)c1[nH]nc2c1-c1nc(Nc3ccc(N4CCNCC4)cn3)ncc1C2", "values": [{"measurement": "IC50", "setting": "CDK4", "value": 8, "unit": "nM"}, {"measurement": "IC50", "setting": "CDK6", "value": 132, "unit": "nM"}]}, {"smiles": "CC(C)n1c(C2CC2)nc2c1-c1nc(Nc3ccc(N4CCNCC4)cn3)ncc1C2", "values": [{"measurement": "IC50", "setting": "CDK4", "value": 13, "unit": "nM"}, {"measurement": "IC50", "setting": "CDK6", "value": 88, "unit": "nM"}, {"measurement": "IC50", "setting": "CDK1", "value": 4390, "unit": "nM"}, {"measurement": "IC50", "setting": "CDK2", "value": 4780, "unit": "nM"}]}, {"smiles": "Cc1nc2c(n1C(C)C)-c1nc(Nc3ccc(N4CCNCC4)cn3)ncc1C2", "values": [{"measurement": "IC50", "setting": "CDK4", "value": 23, "unit": "nM"}, {"measurement": "IC50", "setting": "CDK6", "value": 30, "unit": "nM"}]}]}
